# Experimental data reported in PMC5727127, “H3K14ac is linked to methylation of H3K9 by the triple Tudor domain of SETDB1” (Nature Communications, 2017).
# Molecular target: T1, SETDB1 3TD, wildtype (Homo sapiens, UniProt Q15047)
# T1 construct: cloned into the pET28a-MHL (residues 190–410), pGEX6P2, and pGEX-4T-1 (residues 197–403) vectors; 6×His; made in house; host or cells: E. coli BL21 derivative (SGC) with pRARE
# Assay: NMR chemical shift perturbation binding to 3TD
# Conditions: 15N HSQC, 25 °C, pH 7.0, 150 mM NaCl
# Experimental: NMR experiments were collected on a Bruker Avance 500-MHz spectrometer equipped with a cryogenic probe. Chemical shift perturbation experiments were carried out using uniformly ^15N-labeled wildtype 3TD protein in 20 mM Tris/HCl pH 7.0 and 150 mM NaCl. ^1H, ^15N HSQC spectra were recorded at 25 °C in the presence of increasing concentrations of histone tail peptides. K d values were calculated by a nonlinear least-squares analysis in Kaleidagraph using the equation Δδ=ΔδmaxcL+cP+Kd-cL+cP+Kd^2-4cLcP∕2cP, where c L is the concentration of the peptide, c P is the concentration of the protein, Δδ is the observed normalized chemical shift change, and Δδ max is the normalized chemical shift change at saturation, calculated as Δδ=ΔδH^2+ΔδN∕5^2, where δ is the chemical shift in p.p.m.
# Supplementary Figure 1: Peptide binding of 3TD. (a) Titration of 3TD binding to peptide arrays. Note the specific binding to H3K9me1/2/3-K14ac double modified […]
# concentration (100 nM). (b) ITC analysis of 3TD binding to single modified H3 tail […]
# peptides. (c) NMR chemical shift perturbation experiments carried out to detect potentially weak binding of 3TD to H3K14ac, H3K9me3 and unmodified H3. Weak binding of H3K14ac could be detected and the […]
# H3 was observed. Panel a relates to Fig. 1, panels b and c to Fig. 2.
# (1 picture or pasted object on this page, not shown here)
compound,measurement,value
C[C@H](NC(=O)[C@@H](NC(=O)[C@H](CCC(N)=O)NC(=O)[C@@H](N)CCCCN)[C@@H](C)O)C(=O)N[C@@H](CCCNC(=N)N)C(=O)N[C@@H](CCCCN)C(=O)N[C@@H](CO)C(=O)N[C@H](C(=O)NCC(=O)NCC(=O)N[C@@H](CCCCN)C(=O)N[C@@H](C)C(=O)N1CCC[C@H]1C(=O)N[C@@H](CCCNC(=N)N)C(=O)N[C@@H](CCCCN)C(=O)N[C@@H](CCC(N)=O)C(=O)O)[C@@H](C)O [H3(4–19) unmodified],binding detected by NMR,no detectable binding
